Target: rhuman cathepsin K (Homo sapiens, UniProt P43235)
Test: Assay for identification of Cathepsin K inhibitors (QFRET, cleavage of Z-Phe-Arg-AMC)
Settings: 0.5 nM rhuman cathepsin K, Z-Phe-Arg-AMC substrate, 30 min pre-incubation, 1 h incubation at room temperature; mean of two separate occasions

Sequences of proteins named here, by UniProt entry; tags and fusion partners are left off. Residues count along the entry.
UniProt P43235, 115-329 limits assumed: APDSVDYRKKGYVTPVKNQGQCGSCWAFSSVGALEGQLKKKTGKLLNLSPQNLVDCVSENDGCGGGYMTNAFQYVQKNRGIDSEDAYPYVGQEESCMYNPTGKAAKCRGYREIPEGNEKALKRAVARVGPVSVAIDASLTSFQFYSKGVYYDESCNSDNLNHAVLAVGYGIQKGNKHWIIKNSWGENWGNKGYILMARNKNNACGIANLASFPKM

CatK FRET Mean pIC50 | SMILES
7.141 | CS(=O)(=O)c1cccc2[nH]c3c(c12)CN(C(=O)[C@@H]1CCCC[C@H]1C(=O)NC1(C#N)CC1)CC3
6.903 | CS(=O)(=O)c1ccc2c3c([nH]c2c1)CCN(C(=O)[C@@H]1CCCC[C@H]1C(=O)NC1(C#N)CC1)C3
